# Assay results reported in publication PMC6702422 (Journal of Pharmaceutical Analysis, 2019).
# Protein sequences, listed by entry. Tags and fused reporters are not part of them. Residues count along the entry.
# UniProt P02769, 25-607: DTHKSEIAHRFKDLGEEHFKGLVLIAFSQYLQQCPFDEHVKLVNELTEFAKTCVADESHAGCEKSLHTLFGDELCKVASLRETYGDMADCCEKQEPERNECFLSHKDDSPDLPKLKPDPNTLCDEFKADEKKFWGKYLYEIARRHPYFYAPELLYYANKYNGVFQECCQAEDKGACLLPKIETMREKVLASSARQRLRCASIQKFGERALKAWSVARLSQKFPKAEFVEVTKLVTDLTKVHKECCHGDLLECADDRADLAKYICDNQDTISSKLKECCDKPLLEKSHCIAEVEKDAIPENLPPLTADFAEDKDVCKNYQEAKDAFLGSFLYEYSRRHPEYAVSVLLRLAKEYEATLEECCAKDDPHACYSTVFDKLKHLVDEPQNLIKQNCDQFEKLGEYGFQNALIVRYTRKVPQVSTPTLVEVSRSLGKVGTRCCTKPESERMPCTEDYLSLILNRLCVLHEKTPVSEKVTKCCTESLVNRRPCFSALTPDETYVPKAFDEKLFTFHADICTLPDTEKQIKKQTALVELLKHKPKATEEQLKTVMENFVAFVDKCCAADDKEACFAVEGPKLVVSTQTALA
# pKd: −log10 of the molar value.
# Assays:
# [1] = molecular target: T1, bovine serum albumin (BSA) (Bos taurus, UniProt P02769); test: Differential pulse voltammetry of RPG in the presence of BSA; type: binding
# [2] = tested on: human serum albumin (HSA); conditions: cited from earlier work
# [3] = molecular target: T1, bovine serum albumin (BSA); test: Effect of metal ions Cu; conditions: binding constant of RPG-BSA system, 298 K
# [4] = molecular target: T1, bovine serum albumin (BSA); test: Site probe displacement; type: binding; conditions: 298 K
# [5] = molecular target: T1, bovine serum albumin (BSA); test: Time-resolved fluorescence lifetime of BSA in the presence of RPG; type: binding; conditions: BSA 1.67 μM
# [6] = molecular target: T1, bovine serum albumin (BSA); test: Fluorescence resonance energy transfer; type: binding; conditions: [BSA] = [RPG] = 1.67 μM
# [7] = molecular target: T1, bovine serum albumin (BSA); test: Steady-state fluorescence quenching of BSA by RPG; type: binding; conditions: for Stern-Volmer quenching constant Ksv: phosphate buffer pH 7.4; for pKd: binding constant K
structure (smiles),measurement,setting,value
"CCOc1cc(CC(=O)NC(CC(C)C)c2ccccc2N2CCCCC2)ccc1C(=O)O (centres unmarked) [RPG, 2-Ethoxy-4-(2-((3-methyl-1-(2-(1-piperidinyl)phenyl)butyl)amino)-2-oxoethyl)benzoic acid]",pKd,[1],4.25
same,binding ratio m,"[1]; DPV, BR buffer pH 7.4, room temperature",1.1
same,binding constant of RPG-HSA (order of magnitude),[2],~10^5 M^−1
same,pKd,[3]; in the presence of Cu(II) (1.67 μM),4.95
same,pKd,[3]; in the presence of Zn(II) (1.67 μM),3.40
same,binding site on BSA,[4],site II of subdomain IIIA
same,<J> (average life time of BSA),[5]; RPG 1.67 μM,4.70 ns
same,α1 (pre-exponential factor),[5]; RPG 1.67 μM,6.64
same,α2 (pre-exponential factor),[5]; RPG 1.67 μM,14.6
same,τ1 (decay time of BSA),[5]; RPG 1.67 μM,1.5
same,τ1 (second column; decay time of BSA),[5]; RPG 1.67 μM,6.16
same,<J> (average life time of BSA),[5]; RPG 3.33 μM,3.87 ns
same,α1 (pre-exponential factor),[5]; RPG 3.33 μM,10.9
same,α2 (pre-exponential factor),[5]; RPG 3.33 μM,14.9
same,τ1 (decay time of BSA),[5]; RPG 3.33 μM,1.07
same,τ1 (second column; decay time of BSA),[5]; RPG 3.33 μM,5.92
same,<J> (average life time of BSA),[5]; RPG 5.00 μM,3.24 ns
same,α1 (pre-exponential factor),[5]; RPG 5.00 μM,16
same,α2 (pre-exponential factor),[5]; RPG 5.00 μM,14.8
same,τ1 (decay time of BSA),[5]; RPG 5.00 μM,0.957
same,τ1 (second column; decay time of BSA),[5]; RPG 5.00 μM,5.72
same,<J> (average life time of BSA),[5]; RPG 6.67 μM,2.77 ns
same,α1 (pre-exponential factor),[5]; RPG 6.67 μM,21.7
same,α2 (pre-exponential factor),[5]; RPG 6.67 μM,14.4
same,τ1 (decay time of BSA),[5]; RPG 6.67 μM,0.899
same,τ1 (second column; decay time of BSA),[5]; RPG 6.67 μM,5.59
same,<J> (average life time of BSA),[5]; RPG 8.33 μM,2.37 ns
same,α1 (pre-exponential factor),[5]; RPG 8.33 μM,27.6
same,α2 (pre-exponential factor),[5]; RPG 8.33 μM,14.4
same,τ1 (decay time of BSA),[5]; RPG 8.33 μM,0.834
same,τ1 (second column; decay time of BSA),[5]; RPG 8.33 μM,5.34
same,<J> (average life time of BSA),[5]; RPG 11.7 μM,2.03 ns
same,α1 (pre-exponential factor),[5]; RPG 11.7 μM,34.2
same,α2 (pre-exponential factor),[5]; RPG 11.7 μM,14.7
same,τ1 (decay time of BSA),[5]; RPG 11.7 μM,0.754
same,τ1 (second column; decay time of BSA),[5]; RPG 11.7 μM,5.03
same,critical distance Ro,[6],1.01 nm
same,distance between BSA and RPG (r),[6],1.48 nm
same,efficiency of energy transfer E,[6],0.1248
same,overlap integral J,[6],0.2906 × 10^−15 cm^3 L mol^−1
same,number of binding sites n per BSA molecule,"[7]; 298, 303 and 308 K",~1
same,number of binding sites n,[7]; 298 K,1.01
same,ΔG^o,[7]; 298 K,-6.05 ± 0.098 kcal/mol
same,number of binding sites n,[7]; 303 K,1.05
same,ΔG^o,[7]; 303 K,-6.74 ± 0.117 kcal/mol
same,Stern-Volmer quenching constant Ksv,[7]; 303 K,(4.45 ± 0.08) × 10^4 L/mol/s
same,number of binding sites n,[7]; 308 K,1.04
same,ΔG^o,[7]; 308 K,-7.24 ± 0.124 kcal/mol
same,Stern-Volmer quenching constant Ksv,[7]; 308 K,(5.68 ± 0.12) × 10^4 L/mol/s
same,quenching mechanism,"[7]; Stern-Volmer analysis at 298, 303, 308 K",dynamic quenching mechanism
same,pKd,"[7]; 298 K, pH 7.4, no site probe or metal ion",4.44
same,pKd,"[7]; 303 K, pH 7.4",4.88
same,pKd,"[7]; 308 K, pH 7.4",5.14
same,nature of binding force,[7]; from signs of ΔH° and ΔS°,hydrophobic forces
same,ΔH^o,"[7]; van't Hoff plot, 298-308 K",29.57 ± 0.507 kcal/mol
same,ΔS^o,"[7]; van't Hoff plot, 298-308 K",500.5 ± 6.95 J/K/mol
